# Measured affinities in a library of Ab-14 heavy chain variants

The measurements come from Engelhart et al. 2022 (doi:10.1038/s41597-022-01779-4) through the FLAb antibody collection.

Target: peptide PDVDLGDISGINAS, taken from heptad repeat 2 (HR2) of SARS-CoV-2 spike.

Parent scFv Ab-14: VH joined to VL by a 15-residue (Gly4Ser)3 linker. Changes lie in the heavy chain CDRs alone.
VH: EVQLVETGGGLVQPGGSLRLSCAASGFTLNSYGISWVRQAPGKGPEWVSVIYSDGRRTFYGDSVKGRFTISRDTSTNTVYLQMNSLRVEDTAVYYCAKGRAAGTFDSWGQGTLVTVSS
VL: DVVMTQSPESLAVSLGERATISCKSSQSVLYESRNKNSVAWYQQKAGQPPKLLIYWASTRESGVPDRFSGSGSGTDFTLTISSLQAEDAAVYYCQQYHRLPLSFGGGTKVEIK

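The starting antibody came from a phage panning campaign against this peptide. The library (AAYL49) carries one to three amino acid substitutions per variant, with no insertions or deletions. The assay is AlphaSeq: two haploid yeast populations carry antibody and antigen on their surface. Mating (16 h, 30 °C) was followed by selection of diploids and sequencing of their barcodes. Each replicate has its own calibration line, from reference interactions of the BCL2 family. The assay was run in three technical replicates.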

Substitutions are numbered in sequence along the VH above, starting at 1 (not Kabat).
All variants listed here change G61 of the VH, counted from its first residue.
Values are log10 of the apparent Kd in nM; lower means stronger binding.
"nd" marks a missing value. The strain was present, yet no cells mated with the target were sequenced in that replicate, which points to weak or no binding.
For reference, the parent read 0.65 as the reference entry and 4.11 (one replicate of three) as a member of this library.

* D54T+G61T+D62I = nd, nd, nd
* N30H+G55Y+G61C = nd, nd, nd
* G61T+A102S+T104D = 1.12, 1.36, 1.28
* Y60W+G61C = nd, nd, nd
* S31L+Y52N+G61P = nd, nd, nd
* G61Y+K65N = nd, nd, nd
* I34V+G61N+A101G = 3.01, nd, nd
* F27P+G61E+S63V = nd, nd, nd
* D54L+R56Y+G61A = nd, nd, nd
* I34G+G61N+F105N = nd, nd, nd
* L29C+G61L+A101Y = nd, nd, nd
* D54W+G61I+K65S = nd, 4.55, nd
* G61A+R100P+G103I = nd, nd, nd
* G61D = 0.69, 0.67, 0.59
* R56Q+G61A+F105N = 1.24, 1.90, 1.47
* G61V+V64K+K65C = nd, nd, nd
* L29N+F59M+G61Y = nd, 3.38, 5.68
* D54P+G61S = nd, nd, nd
* G55D+G61C+G103D = nd, nd, nd
* T28A+F59Y+G61K = -0.14, 0.25, -0.04
* T28W+G61V+A102W = 6.47, 4.48, nd
* Y32N+G61M+A101V = 2.03, 2.04, 2.12
* G61F = nd, nd, nd
* S31Y+G61I+A102D = nd, nd, nd
* G61V+V64T+R100Y = 4.51, nd, nd
* S53C+G61N+G103Q = 5.35, 4.48, nd
* G61P+G103T+F105W = nd, nd, nd
* G55Y+F59S+G61K = nd, nd, nd
* R57Y+G61H+S63L = nd, 3.07, nd
* G55I+F59R+G61I = nd, nd, nd
* I34V+V50K+G61P = nd, nd, nd
* R57F+F59K+G61E = nd, nd, nd
* S31P+G61A+F105T = nd, 3.04, 3.03
* G61V+A101P = 2.30, 2.56, 2.13
* Y32G+R56M+G61C = 4.05, 5.21, nd
* G61H+T104E+S107D = 0.16, 0.34, 0.28
* G61T+T104K = 1.48, 1.25, 0.97
* L29F+S53V+G61S = nd, nd, nd
* R56L+G61R+S107Q = 0.35, 0.59, 0.49
* I51A+F59W+G61E = nd, nd, nd
* Y32M+S53M+G61I = nd, nd, nd
* I51N+G61P+V64Y = nd, nd, nd
* R56A+G61D+K65L = 1.58, 2.02, 1.96
* T28Q+G61P = 2.47, 2.20, 2.35
* G61Y = nd, nd, nd

The 3 strongest on average among those seen in every replicate, once more:

| changes | replicates, log10 nM |
|---|---|
| T28A+F59Y+G61K | -0.14, 0.25, -0.04 |
| G61H+T104E+S107D | 0.16, 0.34, 0.28 |
| R56L+G61R+S107Q | 0.35, 0.59, 0.49 |

Empty control strains, which show no peptide, gave a signal in 15% of pairings with library AAYL49; the median was 4.06 and 95% of these signals were weaker than 2.83. No background was subtracted.